Experimental data published in patent US20240317696A1, “ALKYL CARBOXYLIC ACID COMPOUNDS AND APPLICATION THEREOF” (MEDSHINE DISCOVERY INC., priority 2021, published 2024).

Sequences of proteins named here, by UniProt entry; tags and fusion partners are left off.
UniProt Q02153, whole entry: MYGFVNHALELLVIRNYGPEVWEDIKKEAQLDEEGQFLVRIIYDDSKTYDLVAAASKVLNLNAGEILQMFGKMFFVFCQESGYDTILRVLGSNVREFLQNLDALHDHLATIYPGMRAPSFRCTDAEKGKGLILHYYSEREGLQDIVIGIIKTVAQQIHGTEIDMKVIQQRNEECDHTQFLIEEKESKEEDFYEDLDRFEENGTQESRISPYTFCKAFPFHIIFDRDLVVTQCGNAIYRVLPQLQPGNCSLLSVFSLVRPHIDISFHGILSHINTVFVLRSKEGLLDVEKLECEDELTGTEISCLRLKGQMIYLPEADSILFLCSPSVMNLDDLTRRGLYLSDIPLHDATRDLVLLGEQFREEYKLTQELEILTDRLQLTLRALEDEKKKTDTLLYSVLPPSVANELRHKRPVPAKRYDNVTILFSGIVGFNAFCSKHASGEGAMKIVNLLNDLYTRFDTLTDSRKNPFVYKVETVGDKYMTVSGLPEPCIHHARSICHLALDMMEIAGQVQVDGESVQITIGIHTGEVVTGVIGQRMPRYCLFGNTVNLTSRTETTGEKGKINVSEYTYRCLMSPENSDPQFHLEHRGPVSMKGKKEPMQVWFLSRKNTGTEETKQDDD
UniProt Q02108, whole entry partner: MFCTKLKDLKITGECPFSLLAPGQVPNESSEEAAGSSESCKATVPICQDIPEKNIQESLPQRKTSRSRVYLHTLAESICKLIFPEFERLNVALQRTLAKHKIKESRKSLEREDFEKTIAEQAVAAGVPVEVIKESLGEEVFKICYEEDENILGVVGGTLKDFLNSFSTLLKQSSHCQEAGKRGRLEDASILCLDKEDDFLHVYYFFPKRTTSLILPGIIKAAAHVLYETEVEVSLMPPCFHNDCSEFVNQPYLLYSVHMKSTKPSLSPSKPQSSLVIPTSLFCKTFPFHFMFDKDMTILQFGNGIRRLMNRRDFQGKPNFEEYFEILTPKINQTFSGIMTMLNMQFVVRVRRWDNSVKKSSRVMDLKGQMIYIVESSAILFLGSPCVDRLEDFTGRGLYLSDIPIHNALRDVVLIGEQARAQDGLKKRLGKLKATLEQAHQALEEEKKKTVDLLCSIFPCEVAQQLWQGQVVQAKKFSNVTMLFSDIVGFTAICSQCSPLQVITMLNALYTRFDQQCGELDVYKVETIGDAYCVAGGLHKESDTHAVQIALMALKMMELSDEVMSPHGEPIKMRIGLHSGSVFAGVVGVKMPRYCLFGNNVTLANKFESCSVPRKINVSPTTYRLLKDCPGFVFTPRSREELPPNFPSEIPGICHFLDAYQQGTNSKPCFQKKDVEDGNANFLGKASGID

Legend:
sGC = sGC (Homo sapiens (Human), UniProt Q02153); assay: cGMP expression test based on LNCap cells (sGC stimulatory activity); settings: ODQ present; for MEC: Minimum effective concentration required to stimulate cGMP production in LNCap cells (greater than three times the baseline value); for EC50: cGMP production in LNCap cells
Experimental: I. cGMP Expression Test Based on InCap Cells
(1) The compound was diluted to a concentration of 10 mM using DMSO.
(2) A serial dilution of the compound was performed, resulting in 10 different concentration levels of each compound. 100 nL of each diluted compound was added to a 96-well plate.
3) Preparation of LNCap Cells
(1) LNCap culture medium: RPMI1640 supplemented with 10% fetal bovine serum (FBS) and 1% double antibody
(9) Assay buffer was added, and the cell concentration was adjusted to 3×10^6/mL.
4) Preparation and Addition of ODQ Solution
(1) 10 mM ODQ stock solution was diluted at a ratio of 1:1000 and added to the cell solution.
(2) After thorough mixing, the solution was added to a microplate at 10 μL per well.
5) Preparation of cGMP Standard Curve
(1) 1 mM cGMP stock solution was diluted to 10 μM using assay buffer. 11 concentration gradients were created through 4-fold serial dilutions.
(2) The diluted cGMP was added to the microplate at 10 μL per well.
6) Addition of Assay Reagents and Plate Reading
(1) cGMP-D2 was transferred to a 384-well plate at 5 μL per well. Anti-cGMP cryptate was transferred to a […] at 5 μL per well. Centrifugation was performed at 1500 rpm for 1 minute.
(2) Incubation was carried out at room temperature for 1 hour.
(3) The plates were read using envision at 665/615 wavelengths.
(1) cGMP standard curve: A standard curve was generated using GraphPad Prism, based on the ratio of cGMP concentration to the 665/615 wavelength values.
(2) Conversion of HTRF (homogeneous time-resolved fluorescence) ratio (665/615) to cGMP concentration: In GraphPad Prism, the HTRF ratio (665/615) was copied to the ratio column of the cGMP standard curve. The analysis “Log inhibitor vs response-variable slope” was run, and the “interpolate” option was selected to convert the HTRF ratio (665/615) into cGMP concentration.
(3) Compound activation curve: A curve was generated using the “Log agonist vs response-variable slope” analysis method in GraphPad Prism, based on the converted cGMP concentration and compound concentration.

[1] = In vivo pharmacokinetic property study in male Sprague Dawley rats
Experimental: Experimental objective: The aim of this study was to determine the pharmacokinetic parameters of the compound in male Sprague Dawley rats.
Sprague Dawley rats (male, 200 to 300 g, 7 to 9 weeks old, procured from Shanghai SLAC)
For this project, four male Sprague Dawley rats were used. Two rats in one group were administered the compound intravenously at a dosage of 2 mg/kg and a concentration of 0.4 mg/mL. Two rats in another group were administered the compound orally at a dosage of 10 mg/kg and a concentration of 1 mg/mL. Plasma samples were collected 0.083 (intravenous group only), 0.25, 0.5, 1, 2, 4, 6, 8, and 24 hours after administration. The collected samples were then analyzed using LC-MS/MS and data were collected. The collected analytical data were processed using Phoenix WinNonlin 6.3 software to calculate relevant pharmacokinetic parameters.

Structure (SMILES) | MEC (sGC) | EC50 (sGC) | further results
C[C@H]([C@H](C(=O)Nc1cc(C(CC(=O)O)C23CC(F)(C2)C3)ccc1F)c1ccc(Cl)cc1)C(F)(F)F (single isomer, unassigned) [WX008] | 0.95 nM | 4.14 nM | 
C[C@H]([C@H](C(=O)Nc1cc(C(CC(=O)O)C2CCCC2)ccc1Cl)c1ccc(Cl)cc1)C(F)(F)F (single isomer, unassigned) |  | 27.7 nM | 
C[C@H]([C@H](C(=O)Nc1cc(C(CC(=O)O)C23CC(F)(C2)C3)ccc1F)c1ccc(Cl)cc1)C(F)(F)F (single isomer, unassigned) [WX009] | 33.06 nM | 29 nM | 
Cc1ccc(C(CC(=O)O)C23CC(F)(C2)C3)cc1NC(=O)[C@H](c1ccc(Cl)cc1)[C@@H](C)C(F)(F)F (single isomer, unassigned) | 25.92 nM | 66.1 nM | 
C[C@H]([C@H](C(=O)Nc1cc(C(CC(=O)O)C23CC(F)(C2)C3)ccc1Cl)c1ccc(Cl)cc1)C(F)(F)F (single isomer, unassigned) | 7.92 nM | 33.6 nM | 
C[C@H]([C@H](C(=O)Nc1cc(C(CC(=O)O)C2CCCO2)ccc1Cl)c1ccc(Cl)cc1)C(F)(F)F (single isomer, unassigned) | 9.83 nM | 81.2 nM | 
COC12CC(C(CC(=O)O)c3ccc(Cl)c(NC(=O)[C@H](c4ccc(Cl)cc4)[C@@H](C)C(F)(F)F)c3)(C1)C2 (single isomer, unassigned) | 0.82 nM | 16.7 nM | AUC ([1]; iv 2 mg/kg): 9.147 µM·h; Cl ([1]; iv 2 mg/kg): 6.7 mL/min/kg; T1/2 ([1]; iv 2 mg/kg): 2.38 h; Vdss ([1]; iv 2 mg/kg): 0.67 L/kg; AUC ([1]; po 10 mg/kg): 36.252 µM·h; T1/2 ([1]; po 10 mg/kg): 2.72 h; % F ([1]; po 10 mg/kg vs iv 2 mg/kg): 79.4%
